Experimental data: PubChem BioAssay AID489041 (Sanford-Burnham Center for Chemical Genomics, 2010)
Activity calls are given as the source filed them. No rule for the calls is given here.

Tested on: HEK-293T NF-kB luciferase reporter counterscreen, luminescence
Experiment: inhibitors of HEK-293T NF-kB luciferase – HEK-293T cells, luminescence, counter-screen for T-cell antigen receptor NF-kB inhibitors, dose response (AID 489041)

Row | Structure (SMILES) | IC50
1 | Cc1ccnc2c1ccc1cccnc12 | inactive: > 80 µM
2 | O=c1c2ccccc2nc(/C=C/c2ccc([N+](=O)[O-])o2)n1-c1ccc(O)cc1 | 5.97 µM
3 | CC[n+]1c(/C=C/N(C)c2ccccc2)oc2ccccc21 | 6.12 µM
